In US5304549A, “Amino acid derivatives” (Hoffmann-La Roche Inc., priority 1991, dated 1994) one finds IC50 data, which are given here for one compound.

SMILES strings stand for the structures.

This experiment has as its target T1, collagenase obtained from a culture of human synovial fibroblasts (Homo sapiens, UniProt P03956).
T1 construct: endogenous in cells; host or cells: human synovial fibroblasts in culture (conditioned medium)
T1 sequence (P03956 100-469): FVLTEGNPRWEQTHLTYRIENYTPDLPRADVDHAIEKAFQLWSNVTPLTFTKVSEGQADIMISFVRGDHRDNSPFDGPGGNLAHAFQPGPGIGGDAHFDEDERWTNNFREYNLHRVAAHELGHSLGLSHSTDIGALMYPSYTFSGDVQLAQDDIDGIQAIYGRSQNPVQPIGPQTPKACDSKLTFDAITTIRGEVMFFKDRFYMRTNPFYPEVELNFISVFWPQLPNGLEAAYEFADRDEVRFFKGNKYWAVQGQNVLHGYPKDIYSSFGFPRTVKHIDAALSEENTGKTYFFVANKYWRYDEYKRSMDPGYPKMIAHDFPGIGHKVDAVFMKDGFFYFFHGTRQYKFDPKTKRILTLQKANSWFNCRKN
Kind of experiment: in vitro collagenase inhibiting activity (14C-acetylated collagen type I from rat tail tendons as substrate, microtitre plate assay). The class given is biochemical.

As to `CNC(=O)[C@@H](NC(=O)[C@H](CC(C)C)C(CN1C(=O)c2ccccc2C1=O)C(=O)NO)C(C)(C)C` (single isomer, unassigned) [Compound E, N^2-[2(R)-[1(R or S)-(hydroxycarbamoyl)-2-phthalimidoethyl]-4-methylvaleryl]-N^1,3-dimethyl-L-valinamide], 500 pM corresponded to half-maximal inhibition (IC50). This counts as sub-nanomolar.
